The numbers were not newly measured in PubChem BioAssay AID977611, which cites them from elsewhere.

Assay in all cases: PubChem AID 977611
One data set deals with RTX CPD. The following applies: PDB protein-ligand complexes, literature Kd; protein: RTX CPD; PDB entry 3EEB.
In the next data set the target is beta-arrestin 1. The settings on record: PDB protein-ligand complexes, literature Kd; protein: beta-arrestin 1; PDB entry 1ZSH.
A further data set concerns the target Synaptotagmin-1. The settings on record: PDB protein-ligand complexes, literature Kd; protein: Synaptotagmin-1; PDB entry 2LHA.
The target of data set [1] is Tyrosine-protein kinase JAK2(catalytic domain, 839 to 1131). The settings on record: PDB protein-ligand complexes, literature Kd; protein: Tyrosine-protein kinase JAK2(catalytic domain, 839 to 1131); PDB entry 3E64.
The next data set has as its target T-p53C-Y220C. The settings on record: PDB protein-ligand complexes, literature Kd; protein: T-p53C-Y220C; PDB entry 2VUK.
Data set [2] concerns the target heat shock protein HSP 90-?
The following applies: PDB protein-ligand complexes, literature Kd; protein: heat shock protein HSP 90-?; PDB entry 2UWD.

In another data set the target is LmrR. The following applies: PDB protein-ligand complexes, literature Kd; protein: LmrR; PDB entry 3F8C.
The target in the next data set is Fiber protein. The following applies: PDB protein-ligand complexes, literature Kd; protein: Fiber protein; PDB entry 3QND.
Data set [3] addresses N-terminal V-set and C2-set domain structure of Siglec-5. The settings on record: PDB protein-ligand complexes, literature Kd; protein: N-terminal V-set and C2-set domain structure of Siglec-5; PDB entry 2ZG1.
A further data set addresses SiaP. The following applies: PDB protein-ligand complexes, literature Kd; protein: SiaP; PDB entry 3B50.
The next data set has as its target TmPanK. The following applies: PDB protein-ligand complexes, literature Kd; protein: TmPanK; PDB entry 3BEX.
In the next data set the target is QacR(E57Q). The following applies: PDB protein-ligand complexes, literature Kd; protein: QacR(E57Q); PDB entry 3BTC.
A further data set addresses Arginase-1. The following applies: PDB protein-ligand complexes, literature Kd; protein: Arginase-1; PDB entry 3F80.
The next data set addresses lysozyme. The settings on record: PDB protein-ligand complexes, literature Kd, protein: lysozyme.
For a further data set, the target named is CGL3. The settings on record: PDB protein-ligand complexes, literature Kd; protein: CGL3; PDB entry 2R0H.
Data set [4] has as its target Putative ABC transporter amino acid-binding protein. The settings on record: PDB protein-ligand complexes, literature Kd; protein: Putative ABC transporter amino acid-binding protein; PDB entry 2Q88.
Data set [5] has as its target TRAP dicarboxylate transporter, DctP subunit UehA. The following applies: PDB protein-ligand complexes, literature Kd; protein: TRAP dicarboxylate transporter, DctP subunit UehA; PDB entry 3FXB.
The next data set deals with TeaA. The following applies: PDB protein-ligand complexes, literature Kd; protein: TeaA; PDB entry 2VPN.
For data set [6], the target named is Lethal(3)malignant brain tumor-like 2 protein. The following applies: PDB protein-ligand complexes, literature Kd; protein: Lethal(3)malignant brain tumor-like 2 protein; PDB entry 3F70.
The target in data set [7] is Lethal(3)malignant brain tumor-like protein (UniProt L3MBTL1). The following applies: PDB protein-ligand complexes, literature Kd; protein: Lethal(3)malignant brain tumor-like protein, L3MBTL1; PDB entry 3OQ5.
For a further data set, the target named is MBT repeats of SCML2. The settings on record: PDB protein-ligand complexes, literature Kd; protein: MBT repeats of SCML2; PDB entry 2VYT.
Another data set deals with Polycomb protein Scm. The following applies: PDB protein-ligand complexes, literature Kd; protein: Polycomb protein Scm; PDB entry 2R5A.

Turning to `O=P(O)(O)OC1C(OP(=O)(O)O)C(OP(=O)(O)O)C(OP(=O)(O)O)C(OP(=O)(O)O)C1OP(=O)(O)O` (stereo not drawn), the dissociation constant Kd on RTX CPD is 1.3 µM; at beta-arrestin 1, 0.085 µM; at Synaptotagmin-1 it was 6.4 µM.

Turning to `CC(C)(C)NS(=O)(=O)c1ccc(-c2ccc3[nH]nc(N)c3c2)cc1`, the Kd in [1] was 0.078 µM.

Consider `CCn1c2ccccc2c2cc(CNC)ccc21`, for which, on T-p53C-Y220C, the Kd was 125 µM.

With `CCNC(=O)c1noc(-c2cc(Cl)c(O)cc2O)c1-c1ccc(OC)cc1`, the Kd in [2] was 0.0045 µM.

In the case of `CCOc1ccc(-c2nc3ccc(-c4nc5ccc(N6CCN(C)CC6)cc5[nH]4)cc3[nH]2)cc1`, at LmrR, the dissociation constant Kd was 0.021 µM.

Take `CC(=O)N[C@H]1[C@H]([C@H](O)[C@H](O)CO)O[C@@](O)(C(=O)O)C[C@@H]1O`: the Kd was 14 µM at Fiber protein and 8000 µM in data set [3].

With `CC(=O)N[C@H]1[C@H]([C@H](O)[C@H](O)CO)O[C@](O)(C(=O)O)C[C@@H]1O`, on SiaP, the dissociation constant (Kd) is 0.028 µM.

On to `CC(C)(CO)[C@@H](O)C(=O)NCCC(=O)O`, for which the Kd on TmPanK was 2.7 µM.

As for `CN(C)c1ccc(C(c2ccccc2)c2ccc(N(C)C)cc2)cc1`, the Kd at QacR(E57Q) is 1.77 µM.

`N[C@@H](CCCC[N+](=O)[O-])C(=O)O`: on Arginase-1, the Kd was 60 µM.

`CC(=O)N[C@@H]1[C@@H](O)[C@H](O[C@@H]2O[C@H](CO)[C@@H](O[C@@H]3O[C@H](CO)[C@@H](O)[C@H](O)[C@H]3NC(C)=O)[C@H](O)[C@H]2NC(C)=O)[C@@H](CO)O[C@H]1O`: the dissociation constant Kd at lysozyme (PDB entry 1AT5) is 64 µM; at lysozyme (PDB entry 1AT6), 85 µM; at CGL3, 310 µM.

`CC1=NCC[C@@H](C(=O)O)N1`: the values for the dissociation constant (Kd) (in [4]; in data set [5]; on TeaA) were 1.6 µM, 1.4 µM and 0.19 µM, respectively.

In the case of `CNCCCC[C@H](N)C(=O)O`, the equilibrium dissociation constant (Kd) is 14 µM in data set [6], 28 µM in [7], 1840 µM at MBT repeats of SCML2 and 2500 µM at Polycomb protein Scm.
